Experimental data from patent US5019575A, “Novel pyridazinone compounds, compositions thereof and method of use” (Orion-yhtyma Oy, priority 1989, dated 1991).

Columns and labels:
troponin = experiment: Retention time in troponin high-performance liquid affinity chromatography (HPLAC) column, calcium dependent binding to troponin
Protocol: The contraction in cardiac muscle and in vascular smooth muscle is triggered by the binding of calcium to troponin and to calmodulin, respectively. […] Commercially available troponin was coupled to the matrix of SelectiSpher-10™ Activated Tresyl silica HPLAC column (size 10 cm×5 mm). The compounds were run through the column with the flow rate 1 ml/min and detected by UV-spectrophotometrically.

[1] = tested on: guinea-pig papillary muscle; experiment: Cardiotonic effect in isolated, electrically driven, right ventricular papillary muscle, without and with carbachol; settings: with 10 μM carbachol / without carbachol
Protocol: The cardiotonic action of the compound was studied in isolated, electrically driven, right ventricular papillary muscle of guinea-pig.
A = experiments carried out without carbachol
B = experiments carried out in the presence of 10 μM carbachol

[2] = tested on: guinea-pig papillary muscle; experiment: Ability to induce tonic contraction in papillary muscle in the absence of extracellular calcium; settings: drug concentration 100 μM; no extracellular calcium
Protocol: The cardiotonic action of the compound was studied in isolated, electrically driven, right ventricular papillary muscle of guinea-pig. In order to compare the cardiotonic action based on PDEIII inhibition to that based on the other mechanisms the experiments were carried out in normal Tyrode's bathing solution (Otani et al., Japan. J. Pharmacol. 45, 425, 1987) and also in the solution with carbachol to eliminate the cardiotonic action due to the PDEIII inhibition (Alousi & Johnson, Circulation, 73 (suppl. III), 10-23, 1986).
C = ability to induce tonic contraction in the absence of extracellular
calcium; drug concentration 100 μM

With `CC1CC(=O)NN=C1c1ccc(NN=C(C#N)C#N)cc1` (centres unmarked) [Example 6, 6-[4-(1,1-dicyanomethylidenehydrazino)phenyl]-4,5-dihydro-5-methylpyridazin-3(2H)one] the “Ratio Ca^2+ /EDTA (retention times in troponin-HPLAC column)” value (troponin; Ca^2+ solution / EDTA solution) was 1.78, the “Retention time in troponin-HPLAC column, Ca^2+ solution” value (troponin; mobile phase with 30 mM calcium, flow rate 1 ml/min) was 4.8 min and the “Retention time in troponin-HPLAC column, EDTA solution” value (troponin; mobile phase without calcium (EDTA), flow rate 1 ml/min) was 2.7 min. For the same compound, the “Ratio B/A of EC50” value [1] was 0.94 and the “C: ability to induce tonic contraction in the absence of extracellular calcium” value [2] was “yes”.
